AlphaSeq binding of Ab-95 light chain variants to a spike HR2 peptide

Antigen: PDVDLGDISGINAS, a 14-residue peptide of the SARS-CoV-2 spike HR2 region.

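The starting antibody came from a phage panning campaign against this peptide. AAYL52 was designed without a model: most single CDR substitutions and a random sample of double and triple ones. The scFvs were displayed on barcoded MATa yeast, the peptide on MATalpha yeast. After mating in shaken culture at 30 °C for 16 h, diploids were selected and their barcode pairs sequenced. A regression on co-assayed BCL2-family reference pairs converts the normalised counts of each replicate to an apparent Kd. There are three technical replicates.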

Parent scFv Ab-95: VH joined to VL by a (GGGGS)3 linker. Changes lie in the light chain CDRs alone.
VH: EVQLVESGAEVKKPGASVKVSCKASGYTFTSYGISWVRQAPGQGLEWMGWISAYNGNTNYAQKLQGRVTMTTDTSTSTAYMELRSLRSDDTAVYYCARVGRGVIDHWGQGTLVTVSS
VL: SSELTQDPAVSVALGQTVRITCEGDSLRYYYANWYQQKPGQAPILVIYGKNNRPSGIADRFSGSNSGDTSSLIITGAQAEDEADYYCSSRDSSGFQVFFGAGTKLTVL

Positions count from residue 1 of the parent VL; L27W puts W in place of L.
The Kd shown is the geometric mean over detected replicates; a lower Kd is a better binder.
"not detected" marks a missing value. The strain was present, yet no cells mated with the target were sequenced in any replicate, which points to weak or no binding.
Nonspecific signal, from three strains lacking the peptide, appeared in 28% of pairings of library AAYL52, centred on 8.2 µM (5% of these signals below 800 nM); values are not corrected for it.
In this assay the parent's reference entry averaged 200 nM; its copy inside this library read 180 nM.

Kd,detected,changes
980 nM,3/3,L27W/Y31G/S89H
62 µM,1/3,L27E/S92P
7.4 µM,2/3,G49T/N51Q/S88E
3.7 µM,3/3,R28G/S88A/D91T
160 nM,3/3,D25S/Y30V/D91P
10 µM,2/3,Y31F/P54S/S89H
6.7 µM,2/3,G24W/Y31C/N51C
520 nM,3/3,Y30W/S92W/F95Q
7.4 nM,3/3,R28N/Y30G/V97Q
not detected,0/3,A32I/P54R/F98E
23 µM,2/3,S26C/R53W/S88R
8.8 µM,2/3,S93D/F95K/V97Y
11 µM,3/3,Y29T/A32Y/N51M
73 nM,3/3,Y31T/S88E/S93H
13 µM,1/3,L27W/N51D/F95W
39 µM,2/3,G49Y/N51V/S89R
2.0 µM,3/3,A32T/K50T
380 nM,3/3,S55G/S89I/S92I
790 nM,3/3,L27I/S93G
2.5 µM,2/3,N51E/S93L/G94I
not detected,0/3,N51Y/N52V/P54W
not detected,0/3,Y31T/G49L/K50T
870 nM,3/3,S26A/R28Y/K50P
130 µM,1/3,Y30F/Y31K/A32Y
35 µM,1/3,D25N/S26K/G49V
8.2 µM,3/3,Y29W/R53D/S88N
11 µM,1/3,R28I/Y31C/S88H
2.5 µM,1/3,G49W/N51R/S88Q
18 nM,3/3,D25Q/Y30G/S93N
3.2 µM,3/3,D91N/S92C/F98M
330 µM,1/3,R28C/N33D/V97W
4.4 µM,2/3,E23V/D25P/N33R
130 nM,3/3,P54G/S93E/G94D
590 nM,3/3,K50S/N51S/P54V
39 µM,1/3,Y30V/G49Y/F95E
4.7 µM,2/3,G24L/F95A/F98G
not detected,0/3,E23L/N51D/F98S
3.9 µM,1/3,E23A/S89R/V97E
1.0 µM,3/3,A32R/F95C
57 nM,3/3,E23G/Y29T/F95Y
25 µM,2/3,S26V/A32L/F98A
not detected,0/3,K50Q/R53Q/D91Y
not detected,0/3,R53E/G94I/F95H
470 nM,3/3,N52V/S92E/V97C
96 nM,3/3,K50D/P54D
130 nM,2/3,L27A/Y31K/P54T
not detected,0/3,R53N/S89T/F98T
2.0 µM,2/3,Y29C/N33A/P54F
820 nM,3/3,E23T/S89K/D91E
200 nM,3/3,K50R/D91I/F95V
2.2 µM,1/3,S26L/G94K/Q96F
12 µM,2/3,A32M/S92I/V97C
3.9 µM,2/3,Y29E/N52R/F98Q
98 nM,3/3,R28M/Y31H/S89C
not detected,0/3,R28I/A32M/K50C
not detected,0/3,S26V/L27C/V97A
3.4 µM,1/3,K50W/P54Y/S89Y
16 µM,3/3,Y30N/N33G/N51Y
30 µM,3/3,Y30C/P54G/F95D
47 nM,1/3,L27T/S88M/S92D
6.2 µM,2/3,G24V/Y30F
5.3 µM,2/3,Y29Q/S55Q/S88R
2.0 µM,3/3,R28C/S92V/S93K
not detected,0/3,D25T/S26I/S92H
not detected,0/3,G49H/G94N/F98L
not detected,0/3,G24I/F98N
3.6 µM,2/3,Y29G/Y30M/R90A
240 nM,3/3,S26F/R28A/Y30L
330 nM,3/3,Y29F/F95A
6.9 µM,2/3,E23M/S92M/F98N
420 nM,1/3,R90G/D91K/V97G
4.1 µM,3/3,N51I/S93I/G94Q
17 µM,2/3,E23F/N52M/R53E
190 µM,1/3,N52G/S55V/V97M
not detected,0/3,G24W/S89P/Q96N
580 nM,3/3,P54S/S89H/Q96C

For reference, 8 entries of the list once more:

changes,Kd,detected
E23V/D25P/N33R,4.4 µM,2/3
L27I/S93G,790 nM,3/3
Y31T/S88E/S93H,73 nM,3/3
S26V/A32L/F98A,25 µM,2/3
Y29E/N52R/F98Q,3.9 µM,2/3
S26L/G94K/Q96F,2.2 µM,1/3
R28N/Y30G/V97Q,7.4 nM,3/3
N51E/S93L/G94I,2.5 µM,2/3

Reference: Engelhart et al. 2022, doi:10.1038/s41597-022-01779-4. File: FLAb, binding data.